# Laboratory results taken from patent publication US9227852B2, “Apparatus, systems, and methods for water treatment” (McWong Environmental Technology, priority 2008, dated 2016).
# Columns and labels:
# [1] = tested on: MS2 coliphage; conditions: conventional chlorine treatment, minimum CT=450 mg-min/L; cited from earlier work
# [2] = Comparison of treatment methods for removing geosmin from water (Table 4, FIG. 6); conditions: feed rate 2 mg/L
# [3] = Comparison of treatment methods for removing MIB from water (Table 4, FIG. 6); conditions: feed rate 2 mg/L
substance,measurement,setting,value
Chlorine,contact time typically required to achieve similar levels of disinfection,[1],90 s
same,Removal (%) Geosmin,[2],45%
same,Removal (%) MIB,[3],33%
